One may read the Tmax as the time from dosing to the highest level.

The conditions of this data set: rat, in vivo, po. As to the method:
Rats were fasted for 16 hours and then forced oral administration to the stomach was performed using an oral gastric tube for rats.
Blood was collected from the tail vein prior to administration and 15 and 30 minutes, 1, 2, 3, 4, 6, 8 and 24 hours after administration. The collected blood was centrifuged at 4° C. for 15 minutes at 3,000 rpm to obtain plasma, and then the plasma concentrations of the various antitumor agents were measured.
These concentrations were measured using gas chromatography and liquid chromatography.

With “interferon β [Comparative Test Example 4-1]”, the AUC0-24 h was determined as 3.79 IU hr/ml, the Cmax came to 1.52 IU/ml and the Tmax came to 1.50 h.

Source of the values: US8293274B2, “Intestinal absorptive anti-tumor agent” (Kabushiki Kaisha Sangi, priority 2005, dated 2012).
